Reference: patent US10745400B2, “Inhibition of BMP signaling, compounds, compositions and uses thereof” (Vanderbilt University, priority 2018, dated 2020)

How the values were obtained:
[1] = Intrinsic clearance, human
[2] = Intrinsic clearance, mouse

| Intrinsic Clearance Human [1] | CLint scaled [2] | Intrinsic Clearance Mouse [2] | SMILES |
| --- | --- | --- | --- |
| 138.78 mL/min/kg | 47.7 mL/min/kg | 97.13 mL/min/kg | Cc1cc(-c2cnc3cc(-c4ccc(C5COCCN5)cc4)ccn23)c2cc(F)cc(F)c2n1 (stereo not drawn) [Compound 22] |
| 32.84 mL/min/kg |  |  | Cc1cc(-c2cnc3cc(-c4ccc(C5CNCCN5)cc4)ccn23)c2cc(F)ccc2n1 (stereo not drawn) [Compound 18] |
| 134.14 mL/min/kg | 47.4 mL/min/kg | 99.99 mL/min/kg | Cc1cc(-c2cnc3cc(-c4ccc(C5COCCN5)cc4)ccn23)c2cc(F)ccc2n1 (stereo not drawn) [Compound 11] |
| 138.78 mL/min/kg | 97.8 mL/min/kg |  | Cc1cc(-c2cnc3cc(-c4ccc(C5COCCN5)cc4)ccn23)c2ccccc2n1 (stereo not drawn) [Compound 21] |
